Experiments:
[1] = biological target: Neuronal acetylcholine receptor subunit alpha-7 (Homo sapiens, UniProt P36544); experiment: Agonist activity at human alpha7 nAChR expressed as xenopus laevis oocytes assessed as increase in receptor desensitization by measuring fold change in peak current response at 30 uM incubated for 120 secs presence of PNU-120596 by two-electrode voltage-clamp electrophysiology method relative to acetylcholine; assay type: cell-based; details: Oocyte, filed as agonist, time 120.0 sec
[2] = biological target: Neuronal acetylcholine receptor; alpha9/alpha10 (Homo sapiens) (UniProt Q9UGM1+Q9GZZ6); experiment: Agonist activity at alpha9alpha10 nAChR (unknown origin) assessed as fold change in maximum response (Imax) relative to acetylcholine; assay type: protein-complex assay; details: filed as agonist
[3] = Selectivity ratio for agonist activity at alpha7 nAChR (unknown origin) to agonist activity at alpha9 nAChR (unknown origin)

Protein sequences, listed by entry. Tags and fused reporters are not part of them. Lines headed by an entry give the natural chain unless they say otherwise; changes in a name come on top.
UniProt P36544, whole entry: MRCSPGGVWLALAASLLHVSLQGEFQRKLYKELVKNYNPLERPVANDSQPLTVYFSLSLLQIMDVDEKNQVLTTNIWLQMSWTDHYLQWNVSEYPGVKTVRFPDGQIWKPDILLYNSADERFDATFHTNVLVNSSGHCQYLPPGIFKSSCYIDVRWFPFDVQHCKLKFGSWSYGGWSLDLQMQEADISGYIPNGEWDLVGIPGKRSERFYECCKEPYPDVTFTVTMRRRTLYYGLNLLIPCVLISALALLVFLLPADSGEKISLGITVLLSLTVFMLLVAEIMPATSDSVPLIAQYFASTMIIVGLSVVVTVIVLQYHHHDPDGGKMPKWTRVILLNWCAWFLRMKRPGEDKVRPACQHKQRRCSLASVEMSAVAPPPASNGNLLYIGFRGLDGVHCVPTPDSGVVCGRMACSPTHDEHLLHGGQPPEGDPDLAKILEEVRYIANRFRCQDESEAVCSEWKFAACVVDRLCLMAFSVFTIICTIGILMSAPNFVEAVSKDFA
UniProt Q9UGM1: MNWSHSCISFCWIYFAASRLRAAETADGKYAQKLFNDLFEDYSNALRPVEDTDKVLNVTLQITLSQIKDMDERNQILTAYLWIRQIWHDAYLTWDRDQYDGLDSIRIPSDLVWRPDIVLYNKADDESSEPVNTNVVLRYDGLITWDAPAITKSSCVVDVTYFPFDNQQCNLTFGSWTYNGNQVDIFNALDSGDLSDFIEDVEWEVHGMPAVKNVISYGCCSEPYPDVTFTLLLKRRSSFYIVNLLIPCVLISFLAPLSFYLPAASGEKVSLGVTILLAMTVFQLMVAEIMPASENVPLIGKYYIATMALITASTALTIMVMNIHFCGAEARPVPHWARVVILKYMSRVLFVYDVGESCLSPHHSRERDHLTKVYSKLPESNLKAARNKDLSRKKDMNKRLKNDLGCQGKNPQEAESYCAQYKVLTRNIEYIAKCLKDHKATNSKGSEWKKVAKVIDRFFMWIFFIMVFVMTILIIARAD
UniProt Q9GZZ6: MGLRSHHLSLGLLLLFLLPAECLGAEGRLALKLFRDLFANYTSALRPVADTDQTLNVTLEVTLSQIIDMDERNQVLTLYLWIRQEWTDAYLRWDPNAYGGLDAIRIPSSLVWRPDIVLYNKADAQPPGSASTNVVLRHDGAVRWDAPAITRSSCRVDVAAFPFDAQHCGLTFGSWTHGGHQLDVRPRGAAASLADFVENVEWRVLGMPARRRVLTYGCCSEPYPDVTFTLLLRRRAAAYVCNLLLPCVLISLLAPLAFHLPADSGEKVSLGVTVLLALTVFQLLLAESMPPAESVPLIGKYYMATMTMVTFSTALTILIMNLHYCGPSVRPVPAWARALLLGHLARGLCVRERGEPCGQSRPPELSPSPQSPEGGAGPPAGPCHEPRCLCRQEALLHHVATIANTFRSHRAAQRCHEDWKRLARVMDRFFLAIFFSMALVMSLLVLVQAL

CC[N+]1(CC)CCN(c2ccc(C(=O)Nc3cccc(C)n3)cc2)CC1.[I-]
fold change (FC) [1]: 0.17 | fold change (FC) [2]: 0.9 | Selectivity ratio [3]: 10

Reference: ChEMBL document CHEMBL5506053, “Explorations of Agonist Selectivity for the α9* nAChR with Novel Substituted Carbamoyl/Amido/Heteroaryl Dialkylpiperazinium Salts and Their Therapeutic Implications in Pain and Inflammation” (J Med Chem, 2024)
